{
  "sequences": {"note": "The chains behind the UniProt entries cited, without tags or fusion partners. Residues count along the entry.", "UniProt P49190, 25-550": "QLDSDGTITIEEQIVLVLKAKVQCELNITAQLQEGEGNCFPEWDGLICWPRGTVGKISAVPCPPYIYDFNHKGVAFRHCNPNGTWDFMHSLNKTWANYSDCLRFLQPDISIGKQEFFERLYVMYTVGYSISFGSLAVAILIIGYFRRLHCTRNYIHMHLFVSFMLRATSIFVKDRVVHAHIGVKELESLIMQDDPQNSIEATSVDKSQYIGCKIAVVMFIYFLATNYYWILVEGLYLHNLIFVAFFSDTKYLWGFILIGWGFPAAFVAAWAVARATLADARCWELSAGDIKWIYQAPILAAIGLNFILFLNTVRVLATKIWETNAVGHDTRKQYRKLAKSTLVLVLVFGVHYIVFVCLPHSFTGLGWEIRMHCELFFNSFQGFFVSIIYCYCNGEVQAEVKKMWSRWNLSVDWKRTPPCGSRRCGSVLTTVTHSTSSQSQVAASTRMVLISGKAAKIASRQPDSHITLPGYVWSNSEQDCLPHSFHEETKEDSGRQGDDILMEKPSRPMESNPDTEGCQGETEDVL", "UniProt P70555, 25-546": "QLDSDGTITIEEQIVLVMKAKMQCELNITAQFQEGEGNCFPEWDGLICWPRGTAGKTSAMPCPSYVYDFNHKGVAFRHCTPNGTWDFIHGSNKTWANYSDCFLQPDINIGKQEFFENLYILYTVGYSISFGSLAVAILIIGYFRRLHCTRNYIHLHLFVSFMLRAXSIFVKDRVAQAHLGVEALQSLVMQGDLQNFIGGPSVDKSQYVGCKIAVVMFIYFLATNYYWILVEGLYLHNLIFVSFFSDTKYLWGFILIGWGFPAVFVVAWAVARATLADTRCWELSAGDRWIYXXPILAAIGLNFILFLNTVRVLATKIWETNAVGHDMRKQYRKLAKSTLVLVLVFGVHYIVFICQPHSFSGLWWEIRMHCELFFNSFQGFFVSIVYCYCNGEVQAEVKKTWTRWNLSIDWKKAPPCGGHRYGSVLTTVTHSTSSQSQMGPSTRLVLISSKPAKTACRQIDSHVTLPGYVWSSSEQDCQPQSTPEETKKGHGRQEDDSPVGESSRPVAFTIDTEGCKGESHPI"},
  "source": "patent US20030032096A1",
  "about": "(US Dept. of Health and Human Services, published 2003)",
  "key": {"[1]": {"molecular_target": "human parathyroid hormone type 2 receptor (PTH2 receptor) (human) (UniProt P49190)", "assay": "cell-based or functional assay"}, "[2]": {"molecular_target": "rat PTH2 receptor (rat, UniProt P70555 25-546)", "assay": "cell-based or functional assay"}},
  "data": [
    {"substance": "PTHrP(1-34) (from UniProt P12272 37-70) (peptide)", "values": [
      {"measurement": "-logEC50 (cAMP accumulation)", "setting": "[1]", "result": 6.03},
      {"measurement": "EC50 (cAMP accumulation)", "setting": "[1]", "result": 930, "unit": "nM"},
      {"measurement": "-logEC50 (cAMP accumulation)", "setting": "[2]", "result": 7.17},
      {"measurement": "EC50 (cAMP accumulation)", "setting": "[2]", "result": 68, "unit": "nM"}
    ]}
  ]
}
